Experimental data as given in PMC8119466, “A screen of FDA-approved drugs identifies inhibitors of protein tyrosine phosphatase 4A3 (PTP4A3 or PRL-3)” (Scientific Reports, 2021).

System: HEK293T cells
Assay: MTT viability assay
Assay type: cell-based, human
Conditions: drug doses 1 to 100 µM, 16 h, normalized to 1% DMSO

## Oc1c(Cl)cc(Cl)c(Cl)c1Cc1c(O)c(Cl)cc(Cl)c1Cl [Hexachlorophene, reference compound]
  viability (MTT): increased MTT absorbance
